These results are taken from PubChem BioAssay AID1556 (The Scripps Research Institute Molecular Screening Center, 2009).

This is a selection; strong and weak results do not stand in their true shares. Active and inactive are the calls of the source.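 How the source made its calls: active means inhibition above the mean plus 3 SD of all compounds in the same screening run (cut at about 4.5% in these data); inactive means the rest.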

One may read the inhibition as the change of the read-out against control, counted positive when it falls.

In this experiment the test system is metallo-beta-lactamase IMP-1 (Pseudomonas aeruginosa). The experiment is described as follows: inhibition of IMP-1 nitrocefin hydrolysis – biochemical, epi-absorbance readout, Pseudomonas aeruginosa enzyme, primary screen (AID 1556).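 Further: 0% = IMP-1 with DMSO and 100% = DMSO wells lacking enzyme.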 The settings on record: purified IMP-1, nitrocefin hydrolysis, epi-absorbance fluorescence; at 5.6 µM; stronger effect = higher value.
As to `CP(=O)(Nc1ccccc1)Oc1ccc(F)cc1` (centres undefined), the inhibition was inactive: -3.4%.
Regarding `O=[N+]([O-])c1cc([N+](=O)[O-])c(OC2CCCCC2O)c([N+](=O)[O-])c1` (centres undefined), the inhibition was inactive: -2.8%.
Then `CCCCCOc1ccc(NP(C)(=O)Oc2ccc(Cl)cc2Cl)cc1` (centres undefined), with inactive: 0.16%.
Then `CCN(CC)CCCOC(=O)C(O)(c1ccccc1)C1CCCCC1` (centres undefined), with inactive: -0.15%; and `CCOC(=O)c1ccc(NP(C)(=O)Oc2ccc(F)cc2)cc1` (centres undefined), with inactive: -1.97%.
Then `COc1ccc(OP(C)(=O)Nc2ccc(SC(F)(F)F)cc2)cc1` (centres undefined), with inactive: 0.08%; and `O=C(OC1CN2CCC1CC2)c1ccc([N+](=O)[O-])cc1` (centres undefined), with inactive: -1.7%; and `O=C(OCCN1CCN(CCOCc2ccccc2)CC1)C(O)(c1ccccc1)c1ccccc1`, with inactive: 0.24%.
As to `CP(=O)(Nc1ccccc1F)Oc1ccccc1` (centres undefined), the inhibition is inactive: -3.28%.
Then `CC(C)c1ccc(OP(C)(=O)Nc2ccc(SC(F)(F)F)cc2)cc1` (centres undefined), with inactive: -1.12%; and `Cc1ccccc1NP(C)(=O)Nc1ccccc1C`, with inactive: -2.75%; and `CP(=O)(Nc1ccc2c(c1)OCCO2)Oc1ccccc1` (centres undefined), with inactive: -2.51%.
The same measure for `CCOP(C)(=S)SCC(=O)NC(C)(CC)C(=O)O` (centres undefined): inactive: -1.54%.
Then `CP(=O)(Nc1ccc(SC(F)(F)F)cc1)Oc1ccc(F)cc1` (centres undefined), with inactive: -2.86%; and `O=[N+]([O-])c1ccc(OP2(=O)COCCO2)cc1` (centres undefined), with inactive: -3.14%; and `O=[N+]([O-])c1cc([N+](=O)[O-])c(NCC2CCS(=O)(=O)C2)c([N+](=O)[O-])c1` (centres undefined), with inactive: -1.93%.
`Cc1cc(-c2cccc3ccccc23)c(C)cn1.O=[N+]([O-])c1cc([N+](=O)[O-])c(O)c([N+](=O)[O-])c1`: the inhibition was inactive: -2.48%.
The same measure for `CN(C)CCOC(=O)C(O)(c1ccccc1)C1CCCCC1` (centres undefined): inactive: -3.09%; for `COc1ccc(NP(C)(=O)Oc2ccccc2OC)cc1` (centres undefined): inactive: 0.1%.
As to `COc1ccc(OP(C)(=O)Nc2cccc(Br)c2)cc1` (centres undefined), the inhibition was inactive: -1.7%.
The same measure for `CCOC(=O)c1ccc(NP(C)(=O)Oc2ccc(Cl)cc2)cc1` (centres undefined): inactive: -2.18%; for `CP(=O)(OC12CC3CC(CC(C3)C1)C2)OC12CC3CC(CC(C3)C1)C2`: inactive: -4.61%.
The same measure for `CN(C)C(=O)c1c([N+](=O)[O-])cc([N+](=O)[O-])cc1[N+](=O)[O-]`: inactive: -2.88%; for `CC(C)(C)c1ccc(OP(C)(=O)O)cc1`: inactive: -2.58%; for `COc1ccccc1OP(C)(=O)Nc1ccccc1Br` (centres undefined): inactive: -1.95%.
Then `CP(=O)(Nc1ccc(Cl)cc1)Oc1ccc(F)cc1` (centres undefined), with inactive: -2.93%.
`O=C(OCCCN1CCCC1)C(O)(c1ccccc1)C1CCCCC1` (centres undefined): the inhibition was inactive: -1.09%.
The same measure for `COc1ccccc1OP(C)(=O)Nc1c(C)n(C)n(-c2ccccc2)c1=O` (centres undefined): inactive: -1.17%; for `CCc1ccc(OP(C)(=O)Nc2cccnc2)cc1` (centres undefined): inactive: 1.05%.
Then `CP(=O)(Oc1ccccc1)N1CCOC1=O` (centres undefined), with inactive: -2.63%; and `COc1ccc(OP(C)(=O)Nc2ccc(Br)cc2)cc1` (centres undefined), with inactive: -2.93%; and `CCN(CC)CC(O)COC(=O)C(O)(c1ccccc1)C1CCCCC1` (centres undefined), with inactive: -4.35%.
The same measure for `COc1ccccc1OP(C)(=O)Nc1ccc(C)cc1C` (centres undefined): inactive: -2.68%; for `CP(=O)(Nc1ccccn1)Oc1ccccc1` (centres undefined): inactive: -3.3%; for `CCc1ccc(OP(C)(=O)O)cc1`: inactive: -2.71%.
With `O=[N+]([O-])c1cc([N+](=O)[O-])c(Nc2ccccn2)c([N+](=O)[O-])c1`, the inhibition is inactive: -1.28%.
Then `Cc1c(NP(C)(=O)Oc2ccc(C(C)C)cc2)c(=O)n(-c2ccccc2)n1C` (centres undefined), with active: 4.95%.
Then `COc1ccc(OP(C)(=O)Nc2ccccn2)cc1` (centres undefined), with inactive: -3.92%.
The same measure for `CN(C)CCOC(=O)C(O)(c1ccccc1)C1CCCC1` (centres undefined): inactive: -3.21%.
`COc1ccccc1OP(C)(=O)Nc1ccc(Br)cc1` (centres undefined): the inhibition was inactive: -2.42%.
The same measure for `CP(=O)(OCCOc1ccccc1)OCCOc1ccccc1`: inactive: -2%; for `CP(=O)(Nc1ccc(Cl)cc1Cl)Oc1ccccc1` (centres undefined): inactive: -1.59%.
Take `Cc1nc2ccc3ccccc3c2o1.O=[N+]([O-])c1cc([N+](=O)[O-])c(O)c([N+](=O)[O-])c1`: the inhibition was inactive: -5.44%.
The same measure for `COc1ccccc1OP(C)(=O)Nc1ccc(C)c(C)c1` (centres undefined): inactive: -3.7%; for `COc1ccc(OP(C)(=O)Nc2ccccc2Br)cc1` (centres undefined): inactive: -3.12%; for `Cc1cc(C)cc(OP(C)(=O)Nc2cccc(C(F)(F)F)c2)c1` (centres undefined): inactive: -2.19%.
The same measure for `Cc1cc(C)cc(OP(C)(N)=O)c1` (centres undefined): inactive: -2.37%; for `COc1ccc(OP(C)(=O)Nc2cccc(F)c2)cc1` (centres undefined): inactive: -5.03%; for `COc1ccccc1OP(C)(=O)Nc1cc(Cl)ccc1C` (centres undefined): inactive: -1.38%.
The same measure for `Cc1ccc(NP(C)(=O)Oc2ccccc2)c(C)c1` (centres undefined): inactive: -1.78%.
Turning to `COc1ccccc1OP(C)(=O)Nc1ccc(C)cc1` (centres undefined), the inhibition was inactive: -1.35%.
Consider `CCOC(=O)c1ccc(NP(C)(=O)Oc2ccccc2)cc1` (centres undefined), for which the inhibition is inactive: -2.9%.
As to `O=[N+]([O-])c1ccc2c(c1)C=Nc1ccccc1O2`, the inhibition was inactive: -0.8%.
Then `Cc1cccc(C)c1OP(C)(N)=O` (centres undefined), with inactive: -2.56%; and `CC(C)(C)c1ccc(OP(C)(=O)Nc2ccc(SC(F)(F)F)cc2)cc1` (centres undefined), with inactive: -2.44%.
The same measure for `CCN(CC)CCCOC(=O)C(O)(c1ccccc1)c1ccccc1`: inactive: -4.34%.
The same measure for `CP(=O)(Nc1ccccn1)Oc1ccc(Cl)cc1` (centres undefined): inactive: -4.06%.
As to `CCOC(=O)c1ccc(NP(C)(=O)Oc2ccc(OC)cc2)cc1` (centres undefined), the inhibition is inactive: -2.44%.
As to `CCOP(C)(=S)SCC(=O)NC(C)C(=O)O` (centres undefined), the inhibition is inactive: -2.54%.
Then `Cc1cc(C)cc(OP(C)(=O)Nc2ccc(SC(F)(F)F)cc2)c1` (centres undefined), with inactive: -1.75%.
Take `CCc1ccc(OP(C)(=O)N2CCN(c3ccc([N+](=O)[O-])cc3)CC2)cc1` (centres undefined): the inhibition was inactive: -3.77%.
The same measure for `CP(=O)(NC(=O)Nc1ccccc1)Oc1ccccc1` (centres undefined): inactive: -2.23%; for `CP(=O)(Oc1ccccc1)OC(c1ccccc1)C(F)(F)F` (centres undefined): inactive: -1.04%.
In the case of `CP(=O)(Nc1ccc(SC(F)(F)F)cc1)Oc1ccc(Cl)cc1` (centres undefined), the inhibition is inactive: -2.38%.
